From US7629364B2, “Compounds that abrogate DNA-damage-induced cell cycle G2 checkpoint and/or augment anti-cancer activity of DNA-damaging treatments” (Canbas Co., Ltd., priority 2002, dated 2009)

Test system: HCT116 cells
Conditions: without CBDC004
Protocol: The subG1 population was determined by staining HCT116 with Krishan's solution and analyzed by flow cytometer. The dead cells were identified on the basis of DNA content, and the percentage of cells in sub G1 (% subG1) was calculated.

## bleomycin [reference compound]
  cytotoxic effect (% subG1) of anti-cancer agent alone: had a cytotoxic effect on HCT116 cells
